# Molecular target: CXCR4/Rluc + CXCR4/YFP (HEK293 세포의 CXCR4 동종이량체 BRET 파트너) (human; Renilla reniformis) (UniProt P61072)
# Test: cell-based or functional assay
substance,measurement,value
"SDF-1 (간질세포-유래 인자-1, CXCL12) (from UniProt P48061 22-89) (ligand)",BRET 신호 증가 (SDF1 100 nM),10%
same,BRET 신호 증가 (SDF1 300 nM),20%
